The subject of one data set is Fe-starved rats. Put plainly: Effect of Fe-supplying agents on the absorption of Fe in Fe-starved rats. As to the method:
3-week old Sprague-Dawley male rats (Daehan Biolink Co., Ltd., Korea) were employed for the present experiment after application of an elementary diet for one week. These rats were divided into a normal group and an experimental group. The diet for the normal group (“normal diet”) was prepared based upon AIN-76 diet composition, whereas the diet for the experimental group (“Fe-free diet” or “experimental diet”) was prepared by replacing a mineral mixture in the normal diet composition with a Fe-deficient mineral mixture. […] These Fe-supplying agents were orally administered to rats along with the experimental diet for one week before the rats were sacrificed.
The concentration of Fe-supplying agent for the oral administration was 10 times the recommended amount for adult males. 3× distilled water was used for preparation of the experimental diet and was fed to rats for maintenance. The compositions of diets administered to the normal group and experimental group, respectively, are described in TABLE 14 below.
Rats were adapted to a cage for one week before the start of the experiment, and their feces were collected for a final 3 days. On the final day, the abdomen was cut open under ether anesthesia, then blood was harvested from abdominal aorta, and major organs such as liver, kidney, spleen, etc. were extracted. […] Each organ was trimmed and washed with normal saline, then moisture on the surface thereof was removed to measure the weight and length.
CBC (Complete Blood Count: Red blood cell; RBC, white blood cell; WBC, Hematocrits; HCT, Hemoglobin; Hb) was measured from the anticoagulated blood, and IRON and TIBC Total Iron Binding Capacity) were measured from the blood serum. CBC was measured by an automatic analyzer (ADVIA 120, Bayer, U.S.A). As reagents, Isoton III (Beckman Coulter, U.S.A), Coulter clenz (Beckman Coulter), Lyse S III (Beckman Coulter), 4% sodium hypochloride-solution (Beckman Coulter) and 4C-plus (Beckman Coulter), Scatter Pak (Beckman Coulter) were used.
All data obtained in the present experiment were expressed with the mean standard error using the SAS program. T-test in each group was carried out at a range of P<0.05 by Duncan's multiple comparison test.

The conditions of data set [1]: orange juice composition of TABLE 5, 2% chelate, stored for a long time.
For another data set, the system named is calcium-starved rats. Nature of the data set: Test of the degree of absorption of Ca-supplying agents in calcium-starved rats. As to the method:
3-week old Sprague-Dawley male rats (Daehan Biolink Co., Ltd., Korea) were employed for the present experiment after adjustment to an elementary diet These rats were divided into a normal group and an experimental group. The diet for the normal group (“normal diet”) was prepared based upon AIN-76 diet composition, whereas the diet for the experimental group (“Ca-flee diet” or “experimental diet”) was prepared by replacing a mineral mixture in the normal diet composition with a Ca deficient mineral mixture. […] These Ca-supplying agents were orally administered to each group along with the Ca-free diet for one week before the rats were sacrificed.
The concentration of Ca-supplying agent in the oral administration was ⅓ of the concentration of calcium in AIN-76 mineral mixture, which corresponds to 10 times the recommended amount for adult males. 3× distilled water was used for preparation of the experimental diet and was also was fed to rats for maintenance. The compositions of diets administered to the normal group and experimental groups, respectively, are described in TABLE 8 as below.
The abdomens of the rats were cut open under ether anesthesia, then blood was harvested from abdominal aorta, and major organs such as liver, kidney, spleen, etc. were […], followed by the extraction of fibula. The blood was centrifuged at 3000 rpm for 10 minutes to separate serum. Each organ and bone was trimmed and washed with normal saline and moisture on the surface thereof was removed to measure the weight and length thereof.
The content of calcium in serum and urine was measured by Calcium Reagent Arsenazo III kit (Sigma Corp., U.S.A). In order to measure the content of calcium in feces, the feces (sample) was put in a Pyrex beaker and the weight thereof was measured to 0.1 mg unit, then 5 ml of HNO3 and 2 ml of H2O2 were added and the beaker was left uncovered on a hot plate. The acid-digested sample was cooled and 2 ml of H2O2 was added thereto, followed by heating. Next, the acid was sufficiently volatilized to make the concentration of HNO3 to 1-5%, followed by the analysis with ICP-AES (inductively Coupled Plasma Atomic Emission Spectrometer). The condition for analysis is given below. • Model: Jobin Yvon 138 Ultrace • Source: Argon plasma (6000 K) • Spectral range: 160-800 nm • Resolution: 0.005 nm (UV) • Detection limit: 1×ppb˜100×ppb • Wavelength for analysis: 393.366 nm 3. Effect On Weight of Major Organs

[2] abbreviates: Fe-supplying agent orally for one week with Fe-free diet.
The mark [3] stands for this setting: Ca-supplying agent orally for one week with Ca-free diet.

Regarding iron-aspartic acid chelate [Fe-Asp], in the data set with Fe-starved rats (Fe intake 1500 μg/3days), the “Fecal Fe excretion” value was 1000.6 μg/3days and the Relative iron absorption is 50.2%. In the data set on Fe-starved rats (setting [2]), this substance yielded a Kidney weight of 7.50 ± 0.22 mg/BW and a Spleen weight of 3.00 ± 0.15 mg/BW. The Liver weight in the data set on Fe-starved rats (Fe-supplying agent orally for one week with Fe-free diet (1% heme 50, 10% Fe-Asp 5 mg/ml/day)) was determined as 40.60 ± 1.00 mg/BW. In the data set with Fe-starved rats (oral for one week), the IRON in serum was determined as 175.2 ± 24.61 µg/dL.
As for “Seaweed Calcium-Aspartic Acid Chelate [EXAMPLE 9]”, the formation of precipitates result in data set [1] was “no precipitates were formed”.
For calcium-aspartic acid chelate [Asp-Ca], in the data set with calcium-starved rats (Ca intake 96 mg/3days), the “Ca excretion in feces” value was 35.39 mg/3days and the “Relative absorption of calcium” value is on record as 65.9%. Moreover, in the data set with calcium-starved rats (setting [3]), the Kidney weight worked out at 8.40 ± 0.26 mg/BW and the Spleen weight turned out to be 3.00 ± 0.00 mg/BW. Further, the “Concentration of calcium in urine” value in the data set with calcium-starved rats (oral for one week) is 0.22 ± 0.04 mg/dL. In the data set with calcium-starved rats (oral for one week, blood from eyeball), the “Concentration of serum-calcium in blood collected from eyeball” value was 11.24 ± 0.85 mg/dL.

The record behind these values is patent US7375243B2, “Method for preparation of amino acid chelate” (MD Bioalpha Co., Ltd., priority 2002, dated 2008).
